Source: PMC9851200, “Multiparameter phenotypic screening for endogenous TFEB and TFE3 translocation identifies novel chemical series modulating lysosome function” (Autophagy, 2022)

The chains behind the UniProt entries cited, without tags or fusion partners.
UniProt Q15349, whole entry: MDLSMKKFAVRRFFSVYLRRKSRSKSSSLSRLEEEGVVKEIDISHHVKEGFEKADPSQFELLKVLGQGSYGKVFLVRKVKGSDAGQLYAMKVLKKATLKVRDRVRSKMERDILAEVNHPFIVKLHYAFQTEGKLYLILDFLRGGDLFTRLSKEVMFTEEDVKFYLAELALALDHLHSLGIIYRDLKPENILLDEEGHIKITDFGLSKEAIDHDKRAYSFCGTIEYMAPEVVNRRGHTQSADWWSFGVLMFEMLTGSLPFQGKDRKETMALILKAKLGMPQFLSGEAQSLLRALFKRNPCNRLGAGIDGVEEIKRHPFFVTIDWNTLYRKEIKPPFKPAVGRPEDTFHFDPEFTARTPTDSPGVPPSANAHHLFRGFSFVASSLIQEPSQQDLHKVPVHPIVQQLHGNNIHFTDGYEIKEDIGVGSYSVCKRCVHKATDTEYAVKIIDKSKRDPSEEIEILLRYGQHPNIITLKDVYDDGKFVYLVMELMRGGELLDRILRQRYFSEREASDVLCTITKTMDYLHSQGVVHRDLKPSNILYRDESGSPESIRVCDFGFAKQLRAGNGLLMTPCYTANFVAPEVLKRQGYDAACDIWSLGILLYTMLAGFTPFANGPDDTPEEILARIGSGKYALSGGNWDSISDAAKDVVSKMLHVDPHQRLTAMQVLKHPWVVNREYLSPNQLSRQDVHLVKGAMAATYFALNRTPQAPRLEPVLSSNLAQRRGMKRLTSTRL
UniProt Q9UK32, whole entry: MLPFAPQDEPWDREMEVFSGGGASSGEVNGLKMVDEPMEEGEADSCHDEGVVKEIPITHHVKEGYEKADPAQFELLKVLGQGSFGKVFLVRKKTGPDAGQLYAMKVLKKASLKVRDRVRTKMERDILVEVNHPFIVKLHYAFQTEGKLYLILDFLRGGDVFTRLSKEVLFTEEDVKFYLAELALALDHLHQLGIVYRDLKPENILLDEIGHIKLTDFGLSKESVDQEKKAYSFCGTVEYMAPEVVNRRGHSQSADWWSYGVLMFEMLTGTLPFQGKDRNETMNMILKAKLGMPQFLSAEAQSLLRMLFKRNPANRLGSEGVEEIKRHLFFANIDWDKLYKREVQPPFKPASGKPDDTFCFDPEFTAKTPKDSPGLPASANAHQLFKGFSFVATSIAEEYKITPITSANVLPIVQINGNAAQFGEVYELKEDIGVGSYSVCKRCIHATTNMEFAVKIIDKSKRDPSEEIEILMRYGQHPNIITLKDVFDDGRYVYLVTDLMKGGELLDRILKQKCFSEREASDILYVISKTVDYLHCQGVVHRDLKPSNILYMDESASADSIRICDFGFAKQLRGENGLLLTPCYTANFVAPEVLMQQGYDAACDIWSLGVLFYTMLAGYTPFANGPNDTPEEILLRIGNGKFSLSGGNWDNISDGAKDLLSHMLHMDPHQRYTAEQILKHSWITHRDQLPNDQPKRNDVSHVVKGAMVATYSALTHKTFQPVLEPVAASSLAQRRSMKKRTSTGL
UniProt Q15418, whole entry: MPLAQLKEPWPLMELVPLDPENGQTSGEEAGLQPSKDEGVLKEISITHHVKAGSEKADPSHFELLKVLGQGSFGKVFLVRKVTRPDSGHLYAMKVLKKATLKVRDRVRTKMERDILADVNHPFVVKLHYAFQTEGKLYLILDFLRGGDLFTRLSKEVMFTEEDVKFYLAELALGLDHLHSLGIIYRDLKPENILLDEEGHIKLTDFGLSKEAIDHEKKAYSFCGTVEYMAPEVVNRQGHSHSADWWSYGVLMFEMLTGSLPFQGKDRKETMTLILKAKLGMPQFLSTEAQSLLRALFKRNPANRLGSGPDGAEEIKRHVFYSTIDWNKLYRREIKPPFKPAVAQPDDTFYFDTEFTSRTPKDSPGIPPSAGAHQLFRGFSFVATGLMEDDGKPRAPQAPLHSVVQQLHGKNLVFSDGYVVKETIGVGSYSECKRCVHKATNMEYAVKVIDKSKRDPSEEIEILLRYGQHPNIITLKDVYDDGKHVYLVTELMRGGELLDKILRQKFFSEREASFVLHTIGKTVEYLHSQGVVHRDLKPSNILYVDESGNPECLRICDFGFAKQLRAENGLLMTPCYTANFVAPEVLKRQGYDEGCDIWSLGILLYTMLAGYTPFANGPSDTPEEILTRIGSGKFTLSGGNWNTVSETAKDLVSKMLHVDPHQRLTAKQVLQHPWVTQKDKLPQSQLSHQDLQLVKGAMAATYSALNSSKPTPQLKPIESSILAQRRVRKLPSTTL
UniProt P51812, whole entry: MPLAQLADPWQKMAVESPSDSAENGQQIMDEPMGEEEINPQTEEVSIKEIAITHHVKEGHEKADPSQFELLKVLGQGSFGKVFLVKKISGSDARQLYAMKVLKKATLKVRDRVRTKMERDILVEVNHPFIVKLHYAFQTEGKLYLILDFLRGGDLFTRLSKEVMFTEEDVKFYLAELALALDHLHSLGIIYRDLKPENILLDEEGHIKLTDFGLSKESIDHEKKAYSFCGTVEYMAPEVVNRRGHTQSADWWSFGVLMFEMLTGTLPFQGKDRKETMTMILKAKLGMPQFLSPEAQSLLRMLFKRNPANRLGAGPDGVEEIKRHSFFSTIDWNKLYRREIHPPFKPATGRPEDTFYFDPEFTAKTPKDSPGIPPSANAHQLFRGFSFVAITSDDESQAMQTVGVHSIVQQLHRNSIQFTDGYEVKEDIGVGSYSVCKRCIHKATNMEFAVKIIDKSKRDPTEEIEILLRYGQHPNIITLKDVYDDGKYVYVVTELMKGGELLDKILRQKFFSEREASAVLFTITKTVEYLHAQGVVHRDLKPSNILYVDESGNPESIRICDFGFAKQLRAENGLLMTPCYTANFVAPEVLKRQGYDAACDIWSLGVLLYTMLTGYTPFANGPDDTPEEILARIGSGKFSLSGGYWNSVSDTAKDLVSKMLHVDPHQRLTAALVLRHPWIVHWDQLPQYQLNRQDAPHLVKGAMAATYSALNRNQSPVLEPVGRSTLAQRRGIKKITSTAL
UniProt Q16539, whole entry: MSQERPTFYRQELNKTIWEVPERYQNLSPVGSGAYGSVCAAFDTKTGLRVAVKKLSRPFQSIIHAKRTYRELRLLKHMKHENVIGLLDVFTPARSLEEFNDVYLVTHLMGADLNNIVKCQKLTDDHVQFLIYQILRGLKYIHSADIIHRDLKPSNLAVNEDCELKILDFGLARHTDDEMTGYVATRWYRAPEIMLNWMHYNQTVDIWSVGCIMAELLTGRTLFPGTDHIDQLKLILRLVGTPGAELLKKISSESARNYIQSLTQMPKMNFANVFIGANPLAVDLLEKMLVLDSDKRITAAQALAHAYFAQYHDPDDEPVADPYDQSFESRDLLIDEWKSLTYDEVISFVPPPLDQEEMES
UniProt Q15759, whole entry: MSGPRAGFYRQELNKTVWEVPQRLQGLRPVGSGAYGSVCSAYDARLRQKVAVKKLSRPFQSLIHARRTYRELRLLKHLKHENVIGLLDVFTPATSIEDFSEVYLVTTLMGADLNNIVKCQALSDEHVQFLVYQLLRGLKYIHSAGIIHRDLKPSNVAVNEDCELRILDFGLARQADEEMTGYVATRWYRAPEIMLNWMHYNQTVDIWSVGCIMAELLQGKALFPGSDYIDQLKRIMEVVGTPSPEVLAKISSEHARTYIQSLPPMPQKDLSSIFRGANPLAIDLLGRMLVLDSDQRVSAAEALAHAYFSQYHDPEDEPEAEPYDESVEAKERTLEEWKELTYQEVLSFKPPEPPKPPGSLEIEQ

How the values were obtained:
[1] = molecular target: T1, kinases (KINOMEscan panel) (Homo sapiens, UniProt Q15349); assay type: binding
[2] = molecular target: T2, kinases (KINOMEscan panel) (Homo sapiens, UniProt Q9UK32); assay type: binding
[3] = molecular target: T3, kinases (KINOMEscan panel) (Homo sapiens, UniProt Q15418); assay type: binding
[4] = molecular target: T4, kinases (KINOMEscan panel) (Homo sapiens, UniProt P51812); assay type: binding
TGFBR1 = molecular target: T5, TGFBR1 (Homo sapiens, UniProt P36897); experiment: TGFBR1 binding KD (Table S3)
T5 sequence (P36897 34-503): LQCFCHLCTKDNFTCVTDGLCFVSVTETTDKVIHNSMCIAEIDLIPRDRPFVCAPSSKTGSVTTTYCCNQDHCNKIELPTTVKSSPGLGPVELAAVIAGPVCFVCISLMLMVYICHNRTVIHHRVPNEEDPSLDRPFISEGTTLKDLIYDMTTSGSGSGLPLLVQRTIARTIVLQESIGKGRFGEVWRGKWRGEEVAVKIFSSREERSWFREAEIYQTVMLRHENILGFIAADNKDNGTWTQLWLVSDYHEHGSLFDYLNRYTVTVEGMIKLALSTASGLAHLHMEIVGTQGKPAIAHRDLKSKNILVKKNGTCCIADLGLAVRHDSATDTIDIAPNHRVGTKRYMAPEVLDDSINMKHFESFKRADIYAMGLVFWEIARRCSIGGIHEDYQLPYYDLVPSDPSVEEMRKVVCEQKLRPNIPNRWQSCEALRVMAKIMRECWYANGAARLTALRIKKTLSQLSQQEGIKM

[5] = molecular target: T1, kinases (KINOMEscan panel); parameters: method as in original PKIS2 published data; conditions: cited from earlier work
[6] = molecular target: T2, kinases (KINOMEscan panel); parameters: method as in original PKIS2 published data; conditions: cited from earlier work
[7] = molecular target: T3, kinases (KINOMEscan panel); parameters: method as in original PKIS2 published data; conditions: cited from earlier work
[8] = molecular target: T4, kinases (KINOMEscan panel); parameters: method as in original PKIS2 published data; conditions: cited from earlier work
[9] = molecular target: T6, cellular kinases of SH-SY5Y cells (Homo sapiens, UniProt P52564); assay type: binding
T6 sequence (P52564 1-334): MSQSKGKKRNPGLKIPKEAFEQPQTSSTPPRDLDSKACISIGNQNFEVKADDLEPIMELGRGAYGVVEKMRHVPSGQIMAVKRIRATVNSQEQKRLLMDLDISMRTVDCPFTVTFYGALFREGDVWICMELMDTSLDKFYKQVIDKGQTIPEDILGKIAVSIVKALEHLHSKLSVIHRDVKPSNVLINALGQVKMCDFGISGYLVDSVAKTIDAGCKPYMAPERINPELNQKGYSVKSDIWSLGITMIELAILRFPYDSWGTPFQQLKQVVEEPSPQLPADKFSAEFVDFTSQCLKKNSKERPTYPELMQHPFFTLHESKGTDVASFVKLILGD

[10] = molecular target: cellular kinases of SH-SY5Y cells (Homo sapiens, UniProt Q16539); assay type: binding
[11] = molecular target: cellular kinases of SH-SY5Y cells (Homo sapiens, UniProt Q15759); assay type: binding
[12] = molecular target: cellular kinases of SH-SY5Y cells (Homo sapiens, UniProt P24941); assay type: binding

SMILES	KINOMEscan RPS6KA2/RSK3(Kin.Dom.1-N-terminal) [1]	KINOMEscan RPS6KA2/RSK3(Kin.Dom.2-C-terminal) [1]	KINOMEscan RPS6KA6/RSK4(Kin.Dom.1-N-terminal) [2]	KINOMEscan RPS6KA6/RSK4(Kin.Dom.2-C-terminal) [2]	KINOMEscan RPS6KA1/RSK1(Kin.Dom.1-N-terminal) [3]	KINOMEscan RPS6KA1/RSK1(Kin.Dom.2-C-terminal) [3]	KINOMEscan RPS6KA3/RSK2(Kin.Dom.1-N-terminal) [4]	KINOMEscan RPS6KA3/RSK2(Kin.Dom.2-C-terminal) [4]	other results
Cc1cccc(-c2nc(Nc3ccc4occc4c3)c3ccccc3n2)n1 [NK168]	0	21	0	3	0	44	0	23	
Cc1cccc(-c2nc(Nc3ccc4nn(C)cc4c3)c3ccccc3n2)n1 [NK167]	0	3	26	5	20	35	0	9	Kd (TGFBR1): > 10 µM
Cc1cccc(-c2nc(Nc3ccc4[nH]nnc4c3)c3ccccc3n2)n1 [NK224]									KINOMEscan RPS6KA2/RSK3(Kin.Dom.1-N-terminal) [5]: 0; KINOMEscan RPS6KA2/RSK3(Kin.Dom.2-C-terminal) [5]: 12; KINOMEscan RPS6KA6/RSK4(Kin.Dom.1-N-terminal) [6]: 0; KINOMEscan RPS6KA6/RSK4(Kin.Dom.2-C-terminal) [6]: 0; KINOMEscan RPS6KA1/RSK1(Kin.Dom.1-N-terminal) [7]: 0; KINOMEscan RPS6KA1/RSK1(Kin.Dom.2-C-terminal) [7]: 16; KINOMEscan RPS6KA3/RSK2(Kin.Dom.1-N-terminal) [8]: 12; KINOMEscan RPS6KA3/RSK2(Kin.Dom.2-C-terminal) [8]: 0
Cc1cccc(-c2nc(Nc3ccc4scnc4c3)c3ccccc3n2)n1 [NK163]	6	28	0	0	14	2	26	15	
Cc1cccc(-c2nc(Nc3ccc4c(cnn4C)c3)c3ccccc3n2)n1 [NK166]									KINOMEscan RPS6KA2/RSK3(Kin.Dom.1-N-terminal) [5]: 24; KINOMEscan RPS6KA2/RSK3(Kin.Dom.2-C-terminal) [5]: 0; KINOMEscan RPS6KA6/RSK4(Kin.Dom.1-N-terminal) [6]: 8; KINOMEscan RPS6KA6/RSK4(Kin.Dom.2-C-terminal) [6]: 0; KINOMEscan RPS6KA1/RSK1(Kin.Dom.1-N-terminal) [7]: 32; KINOMEscan RPS6KA1/RSK1(Kin.Dom.2-C-terminal) [7]: 0; KINOMEscan RPS6KA3/RSK2(Kin.Dom.1-N-terminal) [8]: 26; KINOMEscan RPS6KA3/RSK2(Kin.Dom.2-C-terminal) [8]: 0
Cc1cccc(-c2nc(Nc3ccc4ncccc4c3)c3ccccc3n2)n1 [NK177]									KiNativ in-cell binding, MAP2K6 [9]: -46.5; KiNativ in-cell binding, MAPK14/p38a [10]: 7.5; KiNativ in-cell binding, MAPK11/p38b [11]: 11.8; KiNativ in-cell binding, CDK2 [12]: -46.5
Cc1cccc(-c2nc(Nc3ccc4c(c3)nnn4C)c3ccccc3n2)n1 [NK221]	1	25	16	16	0	60	0	27	

Read-outs that look alike come from different tables or passages of the source.
